Only some compounds are listed: those with a hit (about 16% of all), similar ones and a draw of the others.
TDP1 cell noCPT = qHTS for Inhibitors of human tyrosyl-DNA phosphodiesterase 1 (TDP1): qHTS in cells in absence of CPT. AID 686978, 2013. Potency, µM (series often up to 46.2 µM), inactives show top-dose activity change, negative = growth inhibition, most hits filed as inhibitors. 420,000 tested, 15% active. DT40 Tdp1-/- hTDP1 cells, no CPT, ATP luminescence, 48 h; also: potency is read from the fitted curve at half-maximal effect; % is scaled to controls: 0 for no effect and ±100 for the full control effect; nearly all actives have a fitted effect of over 55% in size
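A cellular qHTS used chicken DT40 cells lacking endogenous Tdp1 but carrying stably transfected human TDP1. Compounds were applied without camptothecin, and cell growth kinetics were judged by ATP-dependent luminescence after ≥48 hr.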
uPA generation = cell surface uPA generation inhibition | cell surface uPA generation assay, qHTS | Potency, µM (doses to about 38.3 µM), inactives show at the top dose activity change, negative = inhibition, most hits filed as inhibitors | 330,000 tested, 0.31% active | AID 540303; active = well fitted inhibition curve with a large enough effect; inconclusive = small, poorly fitted or top-dose-only effect; inactive = no such curve, though single readings can be large or run the other way; tested in mouse RAW 264.7 cells; also: potency is read from the fitted curve at half-maximal effect; % is scaled to controls: 0 for no effect and ±100 for the full control effect; nearly all actives have a fitted effect of over 55% in size
TDP1 block = TDP1 (human) enzyme inhibition. Q9NUW8. recombinant TDP1, AlphaScreen DNA substrate cleavage. Potency, µM (doses to about 130 µM), for the others: top-dose activity change, negative = inhibition, usual class: inhibitors. 350,000 tested, 0.28% active. AID 485290; also: potency is read from the fitted curve at half-maximal effect; % is scaled to controls: 0 for no effect and ±100 for the full control effect; nearly all actives have a fitted effect of over 40% in size
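E. coli-derived human Tdp1, 1 nM final. Cpd preinc 15 min RT; substrate 15 nM final, 5 min RT; AS bead mix 10 ug/ml final, 10 min RT. Signal loss = tyrosine-FITC cleavage. No-enzyme wells = max signal.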
miR-21 FLuc = miR-21 reporter, rising signal; Potency, µM (titrated, usually from 38.3 µM), without a hit: at the highest dose reporter change, positive = more light; AID 2288; 340,000 tested, under 10 active; HeLa miR-21 FLuc reporter, luciferase, 48 h; active = well fitted rising curve with a large enough effect; inconclusive = small, poorly fitted or top-dose-only effect; inactive = no such curve, though single readings can be large or run the other way;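 note: % of control where 0% means no effect; miR-21 action dims this reporter so a rising signal means less miR-21 action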
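HeLa cells stably expressing CMV-driven firefly luciferase with a downstream miR-21 binding sequence, endogenously expressing miR-21, were treated with titrations (up to about 40uM final) for 48 hours at 37 degree Celsius. Luciferase luminescence was read after lysis.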
DT40 TDP1 CPT = DT40-hTDP1 cell growth loss with CPT; chicken DT40 Tdp1-/-;hTDP1 cells + 20 nM CPT, ATP luminescence, 48 h; Potency, µM (series often up to 46.2 µM), for inactives: top-dose activity change, negative = growth inhibition, actives largely listed as inhibitors; 420,000 tested, 12% active; also: potency is read from the fitted curve at half-maximal effect; % is scaled to controls: 0 for no effect and ±100 for the full control effect; nearly all actives have a fitted effect of over 55% in size
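Chicken DT40 Tdp1-/- cells stably complemented with human TDP1 were seeded at 400 cells/well in medium containing 20 nM camptothecin, exposed to pin-transferred compounds, and grown at 37 °C for at least 48 hr. Viability was read as ATP luminescence.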
Starred values were filed as active, the others as inactive; ? = inconclusive; . = no result given. Unless noted, calls follow the shape of the dose curve; as a rule, active = well fitted curve in the direction sought with a large enough effect; inconclusive = small, poorly fitted or top-dose-only effect, or another doubt; inactive = no such curve, though single readings can be large; an effect the other way counts as inactive or inconclusive.

Second line of a record: TDP1 cell noCPT | uPA generation | TDP1 block | miR-21 FLuc | DT40 TDP1 CPT
> COc1ccc(OC)c(S(=O)(=O)N2Cc3ccccc3CC2C(=O)Nc2ccc(Cl)cc2)c1 (configuration not stated)
    ? | . | 2% | -2% | ?
> CC(C)(C)C(=O)c1c(N)[nH]c(C(=O)c2ccccc2)c1-c1ccccc1Br
    16µM* | . | . | . | 26µM*
> CC(C)(C)C(=O)c1c(N)[nH]c(C(=O)c2ccccc2)c1-c1c(F)cccc1F
    21µM* | . | . | . | ?
> Nc1[nH]c(C(=O)c2ccccc2)c(-c2cccc3ccccc23)c1C(=O)NCc1ccccc1
    23µM* | . | . | . | ?
> Nc1[nH]c(C(=O)c2ccccc2)c(-c2ccc(Cl)cc2Cl)c1C(=O)c1ccc(Cl)c(Cl)c1
    ? | . | . | . | 18µM*
> NC(=O)c1c(N)[nH]c(C(=O)c2ccccc2)c1-c1ccncc1
    -18% | . | . | . | 3%
> Nc1[nH]c(C(=O)c2ccccc2)c(-c2ccncc2)c1C(=O)NCc1ccc(Cl)cc1
    -8% | . | . | . | 7%
> N#Cc1c(N)[nH]c(C(=O)c2ccccc2)c1-c1ccc(Cl)cc1
    -28% | . | . | . | -28%
> CC(C)(C)C(=O)c1c(N)[nH]c(C(=O)c2ccccc2)c1-c1cc2ccccc2nc1Cl
    ? | . | . | . | -3%
> CCOC(=O)C1CCCN(CCC(=O)Nc2cc(C)ccc2C)C1 (configuration not stated)
    -26% | 3% | 3% | -4% | -9%
> NC(=O)c1c(N)[nH]c(C(=O)c2ccccc2)c1-c1ccccc1Br
    18µM* | . | . | . | ?
> COc1ccc(-c2c(C(=O)c3ccc(Br)cc3)[nH]c(N)c2C(=O)c2ccccc2)cc1OC
    21µM* | . | . | . | ?
> COC(=O)c1c(N)[nH]c(C(=O)c2ccccc2)c1-c1ccccc1Br
    16µM* | . | . | . | ?
> CCn1c(=O)c2cc(C(=O)NCCCOC)sc2c2ccccc21
    10µM* | 5.6µM* | 6% | 12% | 18µM*
> CCN(CCCNC(=O)c1cc2c(=O)n(CC)c3ccccc3c2s1)c1ccccc1
    18µM* | . | 6% | 10% | ?

Arranged by length of the SMILES (high to low): four of the compounds above.
Second line of a record: TDP1 cell noCPT | uPA generation | TDP1 block | miR-21 FLuc | DT40 TDP1 CPT
> Nc1[nH]c(C(=O)c2ccccc2)c(-c2ccc(Cl)cc2Cl)c1C(=O)c1ccc(Cl)c(Cl)c1
    ? | . | . | . | 18µM*
> CC(C)(C)C(=O)c1c(N)[nH]c(C(=O)c2ccccc2)c1-c1cc2ccccc2nc1Cl
    ? | . | . | . | -3%
> CC(C)(C)C(=O)c1c(N)[nH]c(C(=O)c2ccccc2)c1-c1ccccc1Br
    16µM* | . | . | . | 26µM*
> CCOC(=O)C1CCCN(CCC(=O)Nc2cc(C)ccc2C)C1 (configuration not stated)
    -26% | 3% | 3% | -4% | -9%

Other records:
Second line of a record: TDP1 cell noCPT | uPA generation | TDP1 block | miR-21 FLuc | DT40 TDP1 CPT
> CCCN(CCC)CCCNC(=O)c1cc2c(=O)n(CC)c3ccccc3c2s1
    ? | -13% | . | 6% | ?
> CCn1c(=O)c2cc(C(=O)Nc3cccc(C(F)(F)F)c3)sc2c2ccccc21
    9.2µM* | . | 2% | 0% | 7.3µM*
> COCCNC(=O)C1(C)CCCN(Cc2cn(C)c3ccccc23)C1 (configuration not stated)
    -10% | . | . | . | -20%
> Cc1ccc(NC(=O)c2ccc(OCc3c(C)noc3C)cc2)c(C)c1
    -19% | -19% | 0% | . | ?
> CN(C)c1nc(N)nc(CSc2n[nH]c(-c3ccccc3)n2)n1
    -13% | 0% | 7% | -39% | 1%
> CCN(CC)S(=O)(=O)c1ccc(C(=O)NCC(c2ccc(OC)cc2)N2CCOCC2)cc1 (configuration not stated)
    -23% | -8% | 2% | 0% | -16%
> Clc1ccccc1CN1CCSCC1
    1% | 10% | . | 0% | -1%
> Cc1ccc(-n2nnc3c(=O)oc4ccccc4c32)cc1
    21µM* | 10% | 2% | -1% | 5.8µM*
> O=C(Cc1ccc(F)cc1)Nc1cccc2cccnc12
    -15% | 1% | 3% | -19% | -11%
> O=c1oc2ccccc2nc1/C=C(O)/C=C/c1ccc(F)cc1
    15µM* | -8% | 0% | -28% | 9.2µM*
> O=c1oc2ccccc2nc1/C=C(O)/C=C\c1ccccc1
    23µM* | -15% | 6% | -31% | 15µM*
> O=C(CN(Cc1ccco1)C(=O)c1cccc(Cl)c1)Nc1c(Cl)cc(Cl)cc1Cl
    ? | 0% | -1% | 0% | 26µM*
> Cc1cc(C)c2c(c1)c1nnc(SCCN3CCOCC3)nc1n2C
    8.2µM* | -8% | . | 0% | -8%
> CCn1c2nc(SCCN3CCOCC3)nnc2c2cc(C)cc(C)c21
    ? | 0% | . | 8% | 16µM*
> c1ccc2c(c1)[nH]c1nc(SCCN3CCOCC3)nnc12
    ? | 2% | 8% | -15% | -21%
> O=S(=O)(NCCSc1ccccc1)c1ccc(F)cc1
    18µM* | 8% | 7% | -6% | ?
> CC(C)(C)SCCNS(=O)(=O)c1ccc(F)cc1
    ? | 0% | -2% | -4% | -25%
> O=S(=O)(Nc1ccc2c(c1)nc1n2CCOC1)c1ccccc1
    -24% | 2% | 3% | -2% | ?
> O=S(=O)(Nc1ccc2c(c1)nc1n2CCOC1)c1ccc(Cl)cc1
    13µM* | -1% | 2% | -10% | ?
> CCOC(=O)c1ccc(OC)c(OC)c1Cl
    -10% | -13% | 4% | -2% | 6%
> CCOC(=O)c1cc(OC(C)=O)c2ccc(OC)c(OC)c2c1
    23µM* | . | . | . | ?
> COc1ccc(Cc2nnc(NC(=O)CS(=O)(=O)Cc3ccccc3)s2)cc1
    9% | 2% | . | . | 0%
> O=C(Cn1c2ccccc2c(=O)c2ccccc21)N/N=C/c1ccc(N2CCCC2)c([N+](=O)[O-])c1
    ? | -1% | 3% | -5% | 18µM*
> O=C(Cn1c2ccccc2c(=O)c2ccccc21)N/N=C/c1cc([N+](=O)[O-])ccc1N1CCCCCC1
    -2% | 2% | -11% | 0% | 0%
> CCCCc1ccc(NC(=O)CSc2nc(=O)n(CCN(C)C)c3c2CCC3)cc1
    ? | -9% | 0% | . | ?
> CCCCc1ccc(NC(=O)CSc2nc(=O)n(CCN(CC)CC)c3c2CCCC3)cc1
    23µM* | 3% | 1% | . | ?
> C(=N\N1CCOCC1)/c1ccsc1
    8% | -2% | . | 1% | 10%
> Cc1ccc(Nc2nc3ccccc3c3nnc(C)n23)c(C)c1
    8.2µM* | . | 8% | -4% | 12µM*
> Cc1nnc2c3ccccc3nc(Nc3ccc(F)cc3Cl)n12
    -28% | . | 6% | -3% | -19%
> COCCNC(=S)N/N=C(\C)c1ccc(Cl)s1
    21µM* | -1% | 11% | -2% | ?
> CNC(=S)N/N=C(\C)c1ccc(Cl)c(Cl)c1
    5.2µM* | -6% | 4% | -8% | 4.1µM*
> COCCNC(=S)NN=C1CCC(c2ccccc2)CC1 (configuration not stated)
    5.2µM* | 0% | 9% | 6% | ?
> COCCNC(=S)N/N=C(\C)c1ccccc1O
    0.082µM* | 0% | 8% | -20% | 0.026µM*
> C/C(=N\NC(=O)C(O)c1ccccc1)c1ccc(Cl)s1 (configuration not stated)
    2% | -18% | 2% | -2% | -7%
> COCCNC(=S)N/N=C(\C)c1ccccc1F
    ? | -5% | 4% | -5% | ?
> CC(=O)NS(=O)(=O)c1ccc(NC(=O)COc2ccc(C(=O)c3ccccc3)cc2)cc1
    0% | 7% | 0% | -2% | 26%

Two compounds picked at random from the list so far:
Second line of a record: TDP1 cell noCPT | uPA generation | TDP1 block | miR-21 FLuc | DT40 TDP1 CPT
> COCCNC(=S)NN=C1CCC(c2ccccc2)CC1 (configuration not stated)
    5.2µM* | 0% | 9% | 6% | ?
> COCCNC(=S)N/N=C(\C)c1ccccc1O
    0.082µM* | 0% | 8% | -20% | 0.026µM*
